High-throughput results (PubChem)
Mito fusion act = inhibitors of mitochondrial division or activators of mitochondrial fusion. S. cerevisiae fusion-defective mutant growth rescue, CellTiterGlo 48 h. Potency, µM (series often up to 46.1 µM), actives largely listed as activators. 320,000 tested, 0.23% active. AID 485298; also: nearly all actives have a fitted effect of over 45% in size
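S. cerevisiae fusion-defective temperature-sensitive mutants (e.g. fzo1-1, mgm1-5) grown 48 h at 37C in YPEG (ethanol/glycerol non-fermentable) medium with 23 nl compound per well; growth rescue read as CellTiterGlo luminescence.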
miR-21 FLuc = miR-21 reporter, rising signal | HeLa miR-21 FLuc reporter, luciferase, 48 h | Potency, µM (top dose mostly 38.3 µM) | 340,000 tested, under 10 active | AID 2288; active = well fitted rising curve with a large enough effect; inconclusive = small, poorly fitted or top-dose-only effect; inactive = no such curve, though single readings can be large or run the other way;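 note: miR-21 action dims this reporter so a rising signal means less miR-21 action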
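Luminescence from a firefly luciferase reporter carrying a miR-21 binding site downstream, stably expressed under a CMV promoter in HeLa cells that make miR-21 endogenously, reports miRNA modulation after 48 h compound exposure up to approximately 40uM final.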
Nrf2 activator = Nrf2 pathway activation | AREc32 ARE-luciferase reporter (MCF7-derived line), luminescence, 24 h | Potency, µM (doses to about 46.1 µM), usual class: activators | 410,000 tested, 0.31% active; also: nearly all actives have a fitted effect of over 65% in size
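AREc32 cells carrying an ARE-driven firefly luciferase, 1000 cells/well in OPTI-MEM with 5% FBS, dosed after overnight attachment and incubated 24 hr at 37 deg C. Steady-Glo luminescence read after 30 min at RT.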
A549 tox-1 = A549 cytotoxicity, counter-screen for Nrf2 inhibitors; A549 ARE-Fluc cells, CellTiter-Fluor viability, 18-24 h; Potency, µM (titrated, usually from 46 µM), hits mostly inhibitors; 390,000 tested, 0.16% active; AID 504648
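A549 ARE-Fluc cells in 5% FBS OPTI-MEM, 5000 cells/well, rested 2 h then exposed to compounds in concentration-response for 18-24 h at 37 °C. Viability by CellTiter-Fluor fluorescence (Ex 405/Em 525) after 30 min; luciferase luminescence (BugLite, 15 min, RT) read afterwards.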
Nrf2 inh = blocks Nrf2 signaling; A549 ARE-Fluc reporter, luciferase luminescence, 18-24 h; Potency, µM (titrated, usually from 46 µM), actives largely listed as inhibitors; 360,000 tested, 2.1% active; AID 504444; also: nearly all actives have a fitted effect of over 60% in size
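Cells were seeded and rested 2 h, then exposed to compounds for 18-24 h. CellTiter-Fluor was read first as a viability measure. BugLite was added 15 min before the final luminescent read of ARE-luciferase activity in A549 cells.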
GRP78 ERSR act = inducers of ER stress response in human glioma cells; AID 602332; U87-MG GRP78 promoter luciferase reporter, 16 h; 420,000 tested, 0.02% active; Potency, µM, actives largely listed as activators; also: series mostly up to about 76 µM; nearly all actives have a fitted effect of over 35% in size
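Stably transfected U87-MG glioma cells carrying a GRP78-based luciferase sensor; 16 h compound incubation. Luminescence end-point read 10 min after Bright-Glo addition at room temperature.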
FLuc counter 3 = firefly luciferase inhibition, Nrf2 hit validation. shares compounds with Nrf2 inh. purified firefly luciferase, luminescence inhibition. Potency, µM (highest dose often 57.5 µM), usual class: inhibitors. 1,400 tested, 4% active; also: nearly all actives have a fitted effect of over 65% in size
A549 tox-2 = A549 cytotoxicity, Nrf2 inhibitor counterscreen | shares compounds with Nrf2 inh | A549 ARE-Fluc cells, cytotoxicity counterscreen | Potency, µM (titrated, usually from 46.1 µM), most hits filed as inhibitors | 1,400 tested, 2% active;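 also: cells exposed to compounds for 18 to 24 hours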
ARE-Fluc inh = confirmation of Nrf2 inhibitors in A549 ARE reporter cells; shares compounds with Nrf2 inh; AID 720524; Potency, µM (titrated, usually from 46.1 µM), usual class: inhibitors; 1,400 tested, 74% active; A549 ARE-firefly luciferase reporter, luminescence; also: nearly all actives have a fitted effect of over 65% in size
Large screens that a line does not name were inactive (follow-up assays come after a bar, where they were run). This is a sample that favours compounds with a hit; in the whole collection about 2.3% have one here. Unless noted, calls follow the shape of the dose curve; as a rule, active = well fitted curve in the direction sought with a large enough effect; inconclusive = small, poorly fitted or top-dose-only effect, or another doubt; inactive = no such curve, though single readings can be large; an effect the other way counts as inactive or inconclusive.

COc1cc(OC)cc(-c2cc3nc(C)c(CCC(=O)Nc4ccc(F)c(Cl)c4)c(C)n3n2)c1	miR-21 FLuc inconclusive, Nrf2 inh 2.06µM (no result: Mito fusion act) | FLuc counter 3 inconclusive | A549 tox-2 inactive | ARE-Fluc inh 5.8µM
CN(C)c1cccc(NC2=CC(=[N+]3CCOCC3)CC(C)(C)C2)c1	none
CCN(CC)C1=CC(=[N+]2CCCC2)CC(C)(C)C1	Nrf2 inh 8.2µM | FLuc counter 3 inactive | A549 tox-2 inactive | ARE-Fluc inh 6.51µM
CN(Cc1ccccc1)C1=CC(=[N+]2CCCC2)CC(C)(C)C1	miR-21 FLuc inconclusive, Nrf2 inh 4.61µM | FLuc counter 3 inactive | A549 tox-2 inconclusive | ARE-Fluc inh 18.4µM
Cc1ccccc1NC(=S)NCc1ccc2c(c1)OCO2	Nrf2 inh inconclusive
COC(=O)C1CCN(C(=O)Cc2ccc(Br)cc2)CC1	none
COc1ccc(C(=O)NCc2nnc(SCC(=O)Nc3ccc4c(c3)OCO4)o2)cc1	none
